Source: ChEMBL document CHEMBL3526057, “Evaluation of the effects of 20 nonsynonymous single nucleotide polymorphisms of CYP2C19 on S-mephenytoin 4'-hydroxylation and omeprazole 5'-hydroxylation” (Drug Metab Dispos, 2011)

Target: Cytochrome P450 2C19 (Homo sapiens, UniProt P33261, D360N)
Assay: Activity of human recombinant CYP2C19 D360N mutant expressed in Saccharomyces cerevisiae BJ5457 assessed as omeprazole 5'-hydroxylation per pmol protein at 5 uM after 60 mins
Format: ADME
Conditions: recombinant enzyme, 1 h

- Drug metabolism: 1.81 pmol/min
Structure (SMILES): COc1ccc2[nH]c([S+]([O-])Cc3ncc(C)c(OC)c3C)nc2c1 (stereo unspecified) [OMEPRAZOLE]
